Laboratory results: patent US20110268818A1, “NGAL-BINDING SIDEROPHORES AND USE THEREOF TO TREAT IRON DEFICIENCY AND IRON OVERLOAD” (priority 2008, published 2011)

Sequences of proteins named here, by UniProt entry; tags and fusion partners are left off. Residues count along the entry.
UniProt P80188, 21-198: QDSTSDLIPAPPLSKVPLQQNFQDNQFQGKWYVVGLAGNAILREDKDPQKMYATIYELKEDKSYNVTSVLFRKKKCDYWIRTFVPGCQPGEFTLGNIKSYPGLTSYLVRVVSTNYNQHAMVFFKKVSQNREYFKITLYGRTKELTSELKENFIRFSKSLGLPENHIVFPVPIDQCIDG

How the values were obtained:
NGAL = molecular target: T1, NGAL (Homo sapiens, UniProt P80188); assay: NGAL:siderophore:iron binding assay (retention on 10 kDa filter); conditions: apoNGAL 10 μM, 55Fe, compound 10 μM, pH 7.4, washed on 10 kDa filter
T1 construct: made in house; host or cells: E. coli BL-21
Procedure: NGAL:Siderophore:Iron Binding Assays. […] After 60 minutes, the mixture was washed 3 times (YM-10) or alternatively gel filtered (PD-10, GE Biosciences). Ent loaded NGAL served as a positive control. Ferric citrate (1 mM) or Ent:iron (500 μM) served as competitors of ^55Fe binding.
After 60 minutes at room temperature, the mixture was then washed 3 times on a 10-kDa membrane (Amicon YM-10; Millipore Corp.). Ngal loaded with iron-free enterochelin (rather than apo-Ngal) served as a positive control for iron capture. Ferric citrate (1 mM) or iron-loaded enterochelin (siderophore:Fe, […]) was used as a competitor of 55Fe binding.

[1] = Siderophore:iron binding assay (paper chromatography)
Description: Siderophore:Iron Binding Assay. To test whether candidates bound iron directly, candidates (1 nmole) were mixed with ^55Fe (1 pmole), and then separated bound from free ^55Fe using paper chromatography developed in water.
Paper chromatography: The Fe-Siderophore Binding Assay: The concept underlying the Ngal-siderophore-Fe binding assay is that the urinary molecule provides an iron binding siderophore, and that the Ngal protein provides the carrier which retains the siderophore:Fe on the 10 KDa filter. […] To directly test this idea, we will mix 55Fe with HMDB compounds and then separate bound from free 55Fe by using paper chromatography. […] The assay also provides an independent means to follow the purification of the urinary siderophore. Using this assay, we can measure the specific activity of the fractions to identify the peak activity, as well as to compare the urinary fraction with enterochelin to establish relative units of activity.

## O=C(O)CC(C(=O)O)C(O)C(=O)O (racemic) [Isocitric acid]
NGAL
  NGAL: Chelator: Fe % Retention: 6%
[1]
  iron chelating activity by paper chromatography (in words): active
